This note sets out measurements from PubChem BioAssay AID624038 (The Scripps Research Institute Molecular Screening Center, 2012).

By UniProt entry, the sequences of proteins in these tests, tags left out.
UniProt P08912, whole entry: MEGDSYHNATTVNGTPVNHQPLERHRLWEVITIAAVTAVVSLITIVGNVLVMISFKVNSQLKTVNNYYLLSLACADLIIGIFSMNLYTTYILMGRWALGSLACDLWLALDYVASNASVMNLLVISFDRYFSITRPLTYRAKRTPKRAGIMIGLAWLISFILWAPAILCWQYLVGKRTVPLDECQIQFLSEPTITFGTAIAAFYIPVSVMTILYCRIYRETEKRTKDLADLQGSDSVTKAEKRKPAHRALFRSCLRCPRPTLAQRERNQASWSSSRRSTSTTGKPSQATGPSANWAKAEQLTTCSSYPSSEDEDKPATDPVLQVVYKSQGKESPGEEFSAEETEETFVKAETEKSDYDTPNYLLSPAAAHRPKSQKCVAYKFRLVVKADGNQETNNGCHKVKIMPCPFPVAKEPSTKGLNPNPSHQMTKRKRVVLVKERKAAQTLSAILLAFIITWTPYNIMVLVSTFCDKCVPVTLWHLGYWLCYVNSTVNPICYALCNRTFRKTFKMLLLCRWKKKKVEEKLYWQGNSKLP

Structures are written as SMILES. The entries are a selection whose mix differs from that of the whole data set. Some tests of the compounds listed are not included; inactive here does not mean inactive elsewhere. Activity calls are given as the source filed them.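 How the source made its calls: active means activation above the run cutoff, the mean activation of all test compounds plus 3 SD (cut at about 18% in these data); inactive means the rest.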

The target of the assay is Muscarinic acetylcholine receptor M5 (Homo sapiens) (UniProt P08912). Kind of assay: human M5 muscarinic receptor positive allosteric modulators, primary screen, CHO-K1 cells, Fluo-8 calcium fluorescence (AID 624038). Conditions: CHO-K1 hM5, Fluo-8 calcium, ACh EC20 PAM; at 3 µM; active compounds read high; 0% = ACh EC20, 100% = ACh EC100.
Consider `COc1cccc(C(=O)NCC2(N3CCCCC3)CCCCC2)c1`, for which the activation is inactive: 13.1%. Consider `COc1ccc(Cl)cc1C(=O)NCC1(N(C)C)CCCCC1`, for which the activation is inactive: -4.07%. For `O=C(NCC1(N2CCCCC2)CCCCC1)c1cccc(Cl)c1`, the activation is inactive: 8.88%. The same measure for `CN(C)C1(CNC(=O)c2ccc(Br)cc2)CCCCC1`: inactive: 2.67%. With `COc1cc(C(=O)NCC2(N(C)C)CCCCC2)c([N+](=O)[O-])cc1OC` the figure was inactive: 5.39%; with `COc1ccc(Br)c(C(=O)NCC2(N3CCCCC3)CCCCC2)c1`, inactive: 11.1%. `C=C(C)C#CC(O)(C(=O)OC1CCN(C)CC1)c1ccccc1` (stereo not drawn): the activation was inactive: -34.2%. Regarding `CN(C)c1cccc(C(=O)NCC2(N(C)C)CCCCC2)c1`, the activation is inactive: 0.34%. The same measure for `CC(C)Oc1ccc(C(=O)NCC2(N(C)C)CCCCC2)cc1`: inactive: -1.96%; for `O=C(OCCN1CCCC1)C(O)(c1ccccc1)c1ccccc1`: inactive: -34.9%. The same measure for `O=C(OC1CN2CCC1CC2)C(CO)(c1ccccc1)c1ccccc1` (stereo not drawn): inactive: -22.4%.

With `CC(C)N1C(=O)CC2(CCN(CCOC(=O)C(O)(c3ccccc3)c3ccccc3)CC2)C1=O`, the activation is inactive: 3.02%.

Consider `CCN(CC)CC(C)C(C)OC(=O)C(O)(c1ccccc1)c1ccccc1` (stereo not drawn), for which the activation is inactive: -30.9%.

For the molecule `COc1cc(SC)ccc1C(=O)NCC1(N(C)C)CCCCC1`, the activation is inactive: 0.38%.

For the molecule `Cc1ccc(C(=O)NCC2(N3CCCCC3)CCCCC2)cc1`, the activation was inactive: 3.97%. Consider `O=C(NCC1(N2CCCCC2)CCCCC1)c1cc([N+](=O)[O-])ccc1Cl`, for which the activation was inactive: 0.25%. The same measure for `C=CCN1CCN(CCOC(=O)C(O)(c2ccccc2)c2ccccc2)CC1`: inactive: -17.1%; for `O=C(NCC1(N2CCCCC2)CCCCC1)c1cc(F)c(F)cc1Cl`: inactive: 0.9%; for `Cc1cc(C(=O)NCC2(N3CCCCC3)CCCCC2)ccc1[N+](=O)[O-]`: inactive: 2.28%. Consider `O=C(NCC1(N2CCCCC2)CCCCC1)c1cccc(Br)c1`, for which the activation was inactive: 0.81%. With `COc1ccc(C(=O)NCC2(N(C)C)CCCCC2)cc1` the figure was inactive: 2.69%.

As to `Cc1ccccc1C(=O)NCC1(N2CCCCC2)CCCCC1`, the activation was inactive: -2.56%. As for `CN(C)c1ccc(C(=O)NCC2(N(C)C)CCCCC2)cc1`, the activation was inactive: 2.02%.
